Reference: patent US20080027145A1, “Therapeutic Molecules and Methods for Generating and/or Selecting Same” (priority 2004, published 2008)

The chains behind the UniProt entries cited, without tags or fusion partners.
UniProt P10415, whole entry: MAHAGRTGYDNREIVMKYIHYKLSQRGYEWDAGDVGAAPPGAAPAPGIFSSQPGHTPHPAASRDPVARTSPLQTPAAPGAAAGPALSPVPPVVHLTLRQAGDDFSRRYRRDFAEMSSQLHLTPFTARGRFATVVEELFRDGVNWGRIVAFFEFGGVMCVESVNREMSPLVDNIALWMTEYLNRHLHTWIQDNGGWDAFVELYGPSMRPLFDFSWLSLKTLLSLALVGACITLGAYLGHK
UniProt Q07817, whole entry: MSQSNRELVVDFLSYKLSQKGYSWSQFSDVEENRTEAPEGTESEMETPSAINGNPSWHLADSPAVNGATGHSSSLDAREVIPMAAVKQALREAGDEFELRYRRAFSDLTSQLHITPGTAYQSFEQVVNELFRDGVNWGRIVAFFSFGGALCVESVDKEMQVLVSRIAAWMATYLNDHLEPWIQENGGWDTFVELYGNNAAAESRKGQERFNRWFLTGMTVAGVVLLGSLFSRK

How the values were obtained:
[1] = target: T1, FLAG-tagged Bcl-2 (Homo sapiens, UniProt P10415); assay: Co-immunoprecipitation in transfected 293T cells; type: binding; conditions: tagged full-length proteins
T1 construct: expressed in transfected cells; host or cells: HEK293T
From the text: (§1) Equivalent ^35S-labeled lysates harvested from 293T cells were immunoprecipitated with antibodies to the HA, FLAG (FL) or control (C) tags.
(§2) The maintenance, transfection and metabolic labeling of the human embryonic kidney (HEK) 293T cells with ^35S-methionine/cysteine (NEN) as well as co-immunoprecipitation have been described (Huang et al., Supra; Moriishi et al., Proc Natl Acad Sci USA 96:9683-9688, 1999; O'Conner et al., Supra). Briefly, equivalent TCA-precipitable lysates were immunoprecipiated using the mouse monoclonal antibodies to HA (HA.11; CRP), FLAG (M2; Sigma) and control Glu-Glu (CRP) tags. The proteins were resolved by SDS:PAGE, transferred onto nitrocellulose membranes and detected by fluorography (Amplify; Amersham Biosciences).
(§3) To verify the in vitro findings, interactions of selected pairs of the full-length N-terminally tagged proteins were investigated in mammalian cells by co-immunoprecipitation. […] The cells were metabolically labeled with ^35S-methionine/cysteine to permit semi-quantitative assessment of any interaction between co-associating radiolabeled proteins.
(§4) To verify the in vitro findings, selected pairs of the full-length N-terminally tagged proteins associated in mammalian cells were investigated by co-immunoprecipitation. […]

[2] = target: T2, FLAG-tagged Bcl-xL (Homo sapiens, UniProt Q07817); assay: Co-immunoprecipitation in transfected 293T cells; type: binding; conditions: tagged full-length proteins
T2 construct: expressed in transfected cells; host or cells: HEK293T
From the text: as §1, §2, §3, §4

B1: Puma: full-length human BH3-only protein Puma expressed in cells (protein, UniProt Q9BXH1 1-193, looked up)
chain: MARARQEGSSPEPVEGLARDGPRPFPLGRLVPSAVSCGLCEPGLAAAPAAPTLLPAAYLCAPTAPPAVTAALGGSRWPGGPRSRPRGPRPDGPQPSLSLAEQHLESPVPSAPGALAGGPTQAAPGVRGEEEQWAREIGAQLRRMADDLNAQYERRRQEEQQRHRPSPWRVLYNLIMGLLPLPRGHRAPEMEPN
modifications: full-length
notes: full-length human BH3-only protein Puma expressed in cells
interaction with Bcl-2 by co-immunoprecipitation [1]: well | interaction with Bcl-xL by co-immunoprecipitation [2]: well
